Patent US10167257B2, “Indole derivatives for use in medicine” (IOmet Pharma Ltd., priority 2014, dated 2019)

Chains of the proteins cited; added tags and fusions are not shown.
UniProt P48775, whole entry: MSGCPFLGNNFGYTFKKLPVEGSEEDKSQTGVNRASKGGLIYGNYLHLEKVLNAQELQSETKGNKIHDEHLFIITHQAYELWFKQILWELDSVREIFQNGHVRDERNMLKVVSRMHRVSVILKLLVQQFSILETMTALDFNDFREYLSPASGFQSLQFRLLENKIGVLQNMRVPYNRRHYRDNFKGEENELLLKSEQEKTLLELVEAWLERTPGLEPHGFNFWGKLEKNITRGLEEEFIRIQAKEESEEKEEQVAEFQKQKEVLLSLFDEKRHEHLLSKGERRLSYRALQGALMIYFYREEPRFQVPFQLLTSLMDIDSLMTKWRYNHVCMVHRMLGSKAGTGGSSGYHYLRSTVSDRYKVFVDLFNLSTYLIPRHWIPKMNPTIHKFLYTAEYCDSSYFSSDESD
UniProt P14902, whole entry: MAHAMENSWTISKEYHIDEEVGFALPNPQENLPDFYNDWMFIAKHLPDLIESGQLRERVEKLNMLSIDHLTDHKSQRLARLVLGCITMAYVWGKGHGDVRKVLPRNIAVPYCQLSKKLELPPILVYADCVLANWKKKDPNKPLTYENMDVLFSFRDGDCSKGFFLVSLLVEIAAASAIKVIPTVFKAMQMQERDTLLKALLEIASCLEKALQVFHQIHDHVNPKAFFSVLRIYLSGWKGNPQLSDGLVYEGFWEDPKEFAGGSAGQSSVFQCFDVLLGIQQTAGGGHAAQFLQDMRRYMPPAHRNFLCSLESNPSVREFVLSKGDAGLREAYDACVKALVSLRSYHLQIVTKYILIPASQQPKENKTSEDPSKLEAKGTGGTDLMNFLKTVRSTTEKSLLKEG

Experiments:
TDO (A172 cells) = TDO (A172 cells) (Homo sapiens, UniProt P48775); assay: TDO cell-based assay (A172), kynurenine production; settings: A172 human glioblastoma cells, 500 μM L-Trp, 48 h, kynurenine by absorbance at 490 nm
Description: (§1) Two different types of assay were employed: 1. A TDO and IDO biochemical coupled assay which utilised recombinantly produced and purified TDO and IDO enzymes in combination with the enzyme formamidase. This coupled enzyme system allowed conversion of N-formylkynurenine produced by TDO or IDO activity to kynurenine which was then quantified by fluorescence following addition of Erhlich's Reagent. 2. A cell-based assay for detecting the effect of test compounds on kynurenine production in two different cancer cell types. This assay utilised cancer cells which expressed either TDO or IDO and as such was used as a means of testing compound activity at these two enzymes in a cell-based context. The protocols for these are set out below.
(§2) A172 human glioblastoma (ATCC) were grown in DMEM+2 mM L-glutamine medium supplemented with 10% foetal bovine serum and SKOV-3 ovary adenocarcinoma (ATCC) cells were grown in McCoys 5A+L-glutamax medium supplemented with 15% foetal bovine serum. On the day of assay, cells were detached using trypsin-EDTA (0.25% v/v), re-suspended in assay media (RPMI 1640 phenol red free+L-glutamine supplemented with 10% dialysed foetal bovine serum). […] Kynurenine levels were then quantified by measuring absorbance at 490 nm.

IDO (SKOV-3 cells) = IDO (SKOV-3 cells) (Homo sapiens, UniProt P14902); assay: IDO cell-based assay (SKOV-3, IFNγ-induced), kynurenine production; settings: SKOV-3 ovary adenocarcinoma cells, IFNγ 500 ng/ml, 500 μM L-Trp, 48 h, kynurenine by absorbance at 490 nm
Description: as §1, §2

C[C@@H](NC(=O)C1Cc2cc(Cl)ccc2N1)c1ccccc1 (some centres unmarked)
TDO cellular assay (A172) pIC50 (TDO (A172 cells)): + (+ = pIC50 4.50-<5.00) | IDO cellular assay (SKOV3) pIC50 (IDO (SKOV-3 cells)): +++ (+++ = pIC50 ≥5.50)
